Results published in PubChem BioAssay AID782 (Emory University Molecular Libraries Screening Center, 2007).
The list shows a part of the results, in another mix than the full data. The source made the active and inactive calls.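 The calls were made as follows: active = inhibition above about 30% (limit read from the data); inactive = the rest.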

The chains behind the UniProt entries cited, without tags or fusion partners.
UniProt P63073, whole entry, looked up: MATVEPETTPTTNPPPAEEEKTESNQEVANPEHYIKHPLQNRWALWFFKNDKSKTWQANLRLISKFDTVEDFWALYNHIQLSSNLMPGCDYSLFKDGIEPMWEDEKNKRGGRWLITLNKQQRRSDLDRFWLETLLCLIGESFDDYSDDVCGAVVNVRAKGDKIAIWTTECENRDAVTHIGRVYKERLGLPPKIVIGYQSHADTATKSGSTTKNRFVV
UniProt Q04637, whole entry, looked up: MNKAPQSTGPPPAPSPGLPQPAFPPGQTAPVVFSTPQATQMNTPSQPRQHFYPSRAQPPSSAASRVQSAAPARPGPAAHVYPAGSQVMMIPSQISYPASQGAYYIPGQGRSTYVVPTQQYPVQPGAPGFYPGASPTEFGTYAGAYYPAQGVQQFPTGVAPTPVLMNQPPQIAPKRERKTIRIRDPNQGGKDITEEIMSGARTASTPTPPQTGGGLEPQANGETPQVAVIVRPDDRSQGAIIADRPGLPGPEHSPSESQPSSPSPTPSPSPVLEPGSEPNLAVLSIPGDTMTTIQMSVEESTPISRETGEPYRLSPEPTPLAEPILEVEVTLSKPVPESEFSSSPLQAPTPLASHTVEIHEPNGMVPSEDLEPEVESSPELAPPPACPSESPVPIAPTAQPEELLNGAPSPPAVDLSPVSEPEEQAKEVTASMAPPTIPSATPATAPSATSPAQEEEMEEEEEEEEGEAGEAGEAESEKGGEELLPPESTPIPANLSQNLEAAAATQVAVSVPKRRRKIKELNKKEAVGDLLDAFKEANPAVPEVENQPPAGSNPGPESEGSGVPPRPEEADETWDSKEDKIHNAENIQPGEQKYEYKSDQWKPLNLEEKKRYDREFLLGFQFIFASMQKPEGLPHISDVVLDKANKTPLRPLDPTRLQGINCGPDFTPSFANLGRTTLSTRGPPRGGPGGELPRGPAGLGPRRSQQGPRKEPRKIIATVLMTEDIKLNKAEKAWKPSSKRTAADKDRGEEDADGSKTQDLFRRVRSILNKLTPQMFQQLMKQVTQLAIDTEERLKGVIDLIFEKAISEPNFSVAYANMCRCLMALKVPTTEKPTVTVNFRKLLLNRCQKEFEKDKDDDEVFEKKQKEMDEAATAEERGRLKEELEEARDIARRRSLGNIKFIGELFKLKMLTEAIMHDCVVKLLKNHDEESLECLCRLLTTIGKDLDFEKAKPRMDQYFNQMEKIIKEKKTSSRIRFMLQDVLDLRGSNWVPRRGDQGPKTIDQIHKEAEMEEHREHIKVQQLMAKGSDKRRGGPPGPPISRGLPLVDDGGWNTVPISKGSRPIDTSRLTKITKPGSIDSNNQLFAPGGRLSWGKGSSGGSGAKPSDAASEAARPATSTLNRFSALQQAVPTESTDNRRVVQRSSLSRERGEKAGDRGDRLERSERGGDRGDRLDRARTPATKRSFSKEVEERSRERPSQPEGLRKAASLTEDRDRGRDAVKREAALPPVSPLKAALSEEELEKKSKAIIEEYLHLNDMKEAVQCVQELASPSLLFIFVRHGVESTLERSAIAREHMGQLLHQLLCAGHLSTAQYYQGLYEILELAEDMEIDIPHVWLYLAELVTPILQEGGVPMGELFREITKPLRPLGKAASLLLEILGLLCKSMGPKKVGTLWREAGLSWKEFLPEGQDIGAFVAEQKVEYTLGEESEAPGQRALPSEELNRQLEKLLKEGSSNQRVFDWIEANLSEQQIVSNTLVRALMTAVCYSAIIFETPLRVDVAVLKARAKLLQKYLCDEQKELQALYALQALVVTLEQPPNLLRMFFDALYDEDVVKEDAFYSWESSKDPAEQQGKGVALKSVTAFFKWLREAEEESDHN

Each compound was assayed against Eukaryotic translation initiation factor 4E (Mus musculus) + Eukaryotic translation initiation factor 4 gamma 1 (Homo sapiens) (UniProt P63073+Q04637) (assay: blockers of eIF4G binding by eIF4E – biochemical, uHTS, TR-FRET, eIF4GI fragment, primary screen (AID 782;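 also: 0% = full FRET control wells and 100% = background wells lacking eIF4GI fragment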)). Conditions: TR-FRET eIF4E-eIF4GI(517-606) binding, 2 h; at 21.7 µM; active compounds read high.

Structure (SMILES) | inhibition
Cc1ccc(OP(=O)(Nc2ccccn2)Oc2ccc(C)cc2)cc1 | inactive: 3.33%
CC(=O)NC(SC(=S)N(CC(C)C)CC(C)C)C(Cl)(Cl)Cl (stereo not given) | inactive: 0.81%
COC(=O)c1cc2c(s1)N=C(c1ccccc1)N(C)P2(=O)N1CCOCC1 (stereo not given) | inactive: -5.88%
O=c1c2cc([N+](=O)[O-])ccc2[nH]c2c([N+](=O)[O-])cc([N+](=O)[O-])cc12 | inactive: 7.28%
CN(C)C(=O)Oc1noc2ccccc12 | inactive: -9.04%
Cc1ccccc1OP(=O)(Nc1ccccn1)Oc1ccccc1C | inactive: -2.45%
CCOc1ccc(C2=NCC(CBr)S2)cc1 (stereo not given) | inactive: 1.37%
O=P1(Nc2nc3ccc(Cl)cc3s2)COc2ccccc2O1 (stereo not given) | inactive: 5.97%
CC(C)(C)C(=O)NC(Sc1ccccc1)C(Cl)(Cl)Cl (stereo not given) | inactive: 4.99%
C[C@H]1OP(=O)(Oc2ccccc2)C[C@@H]2O[C@@H]21 (stereo not given in full) | inactive: -1.19%
C[C@@H]1C=CCP(=O)(Oc2ccccc2)O1 (stereo not given in full) | inactive: -7.33%
CC(=O)Nc1ccc(Oc2c([N+](=O)[O-])cc([N+](=O)[O-])cc2[N+](=O)[O-])cc1 | inactive: 2.4%
CC(=O)Nc1ccc([As](=O)(O)O)c(O)c1 | inactive: -6.07%
CC(C)C(=O)NC(Sc1ccccc1)C(Cl)(Cl)Cl (stereo not given) | inactive: -0.23%
O=P(Nc1nccs1)(c1ccccc1)c1ccccc1 | inactive: -1.16%
c1nnnn1CCn1cnnn1 | inactive: -0.92%
O=P(Nc1ccccn1)(c1ccc(Br)cc1)c1ccc(Br)cc1 | inactive: -4.62%
C[C@H]1OP(=O)(Oc2ccccc2)[C@H](O)[C@H](O)[C@H]1N=[N+]=[N-] (stereo not given in full) | inactive: -2.31%
O=P(Nc1nc2ccccc2s1)(c1ccccc1)c1ccccc1 | inactive: 2.03%
O=[As](O)(c1ccccc1)c1ccc(O)cc1 | inactive: -4.56%
O=[N+]([O-])c1ncn(CCn2cnc([N+](=O)[O-])n2)n1 | inactive: 5.45%
CC(=O)NC(SC(=S)N(C)C)C(Cl)(Cl)Cl (stereo not given) | inactive: -0.64%
O=C(OC1CN2CCC1CC2)c1cccc(Cl)c1 (stereo not given) | inactive: -8.51%
C(Cc1nn[nH]n1)Cc1nn[nH]n1 | inactive: 7.65%
Nc1ccc([As](=O)(O)c2ccc([N+](=O)[O-])cc2)cc1 | inactive: 2.71%
